As usually defined, the Ki is a measure of affinity in units of concentration, obtained from inhibition or displacement. A low value points to a stronger hold on the target.

Amino acid sequences for entries named in this document (tags omitted). A change or cut given only in a name is not applied to a line headed by its entry.
UniProt P35218: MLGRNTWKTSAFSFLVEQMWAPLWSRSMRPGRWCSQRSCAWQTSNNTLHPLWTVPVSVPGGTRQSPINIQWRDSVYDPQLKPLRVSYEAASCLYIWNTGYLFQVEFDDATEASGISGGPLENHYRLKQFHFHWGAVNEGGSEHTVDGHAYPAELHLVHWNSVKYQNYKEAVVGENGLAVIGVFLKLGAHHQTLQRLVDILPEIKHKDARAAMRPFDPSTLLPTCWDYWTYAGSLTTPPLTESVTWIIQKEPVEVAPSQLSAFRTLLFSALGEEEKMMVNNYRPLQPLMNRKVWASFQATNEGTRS

In the test the target is Carbonic anhydrase 5A, mitochondrial (Homo sapiens) (UniProt P35218).

For `NS(=O)(=O)c1cc(C(=O)O)c(NCc2ccco2)cc1Cl`, the Ki was 0.499 µM.

The record behind these values is ChEMBL document CHEMBL1144796, “Carbonic anhydrase inhibitors. Interaction of indapamide and related diuretics with 12 mammalian isozymes and X-ray crystallographic studies for the indapamide-isozyme II adduct” (Bioorg Med Chem Lett, 2008).
